## Apparent affinities of Ab-95 variants for a coronavirus HR2 peptide

Reference: Engelhart et al. 2022, doi:10.1038/s41597-022-01779-4. File: FLAb, binding data.

Binding partner: SARS-CoV-2 spike HR2 peptide, sequence PDVDLGDISGINAS.

Parent scFv Ab-95: VH joined to VL by three GGGGS repeats. Changes lie in the light chain CDRs alone.
VH: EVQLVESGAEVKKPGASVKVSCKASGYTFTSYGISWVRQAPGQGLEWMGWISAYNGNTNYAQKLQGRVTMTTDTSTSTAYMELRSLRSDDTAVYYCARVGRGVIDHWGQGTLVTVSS
VL: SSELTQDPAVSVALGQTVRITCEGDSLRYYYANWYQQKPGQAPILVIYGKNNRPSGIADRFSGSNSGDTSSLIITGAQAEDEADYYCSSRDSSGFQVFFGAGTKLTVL

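Library AAYL52 holds single substitutions and randomly drawn double and triple substitutions in the CDRs. Affinity was read by AlphaSeq, a pooled yeast mating assay with surface-displayed partners. The frequency of each diploid, read from paired DNA barcodes, reflects how well the two displayed proteins bind. Each replicate has its own calibration line, from reference interactions of the BCL2 family. Each pool was mated in three replicate cultures.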

Each variant is given by its three light chain CDRs, as the data file delimits them; those of the parent are EGDSLRYYYAN, GKNNRPS, SSRDSSGFQVF. Values are log10 of the apparent Kd in nM; lower means stronger binding. Averages over replicates are reported, and they cover detected replicates only. "ND" means that the variant was in the library but no mating with the target was seen in that replicate; the authors take this as a sign of poor binding, and no number exists. In this assay the parent's reference entry averaged 2.31; its copy inside this library read 2.25. Empty control strains, which show no peptide, gave a signal in 28% of pairings with library AAYL52; the median was 3.91 and 95% of these signals were weaker than 2.90. No background was subtracted. For each scFv, signals with the empty controls are counted beside the result, with their mean in brackets.

| # | CDR-L1 | CDR-L2 | CDR-L3 | replicates, log10 nM | mean, log10 nM | empty controls |
|---|---|---|---|---|---|---|
| 1 | CGDSLRYYYAN | GKNNRPS | SSRDSEGFQMF | ND ND ND | ND | 0/9 |
| 2 | EGDSLRYYYAN | YKNNRPS | SSRDSSGPQVF | ND ND ND | ND | 2/9 (3.12) |
| 3 | EGDSLRYYIAN | GKNHRPS | SSRDSSGFQVK | ND ND ND | ND | 0/9 |
| 4 | EGDSLRYYYAN | GKNNRPS | SSRDSHGFQAI | ND ND ND | ND | 1/9 (2.69) |
| 5 | EGRSLRYYYAN | GDNNRPS | SSRISSGFQVF | 2.28 1.93 2.52 | 2.24 | 4/9 (3.68) |
| 6 | EGDSLRTYYAN | GKNNRPS | SSRPSSGFQVG | 2.28 2.17 2.75 | 2.40 | 5/9 (3.91) |
| 7 | EGDSLRGYYAN | GKNNRPS | SSRDSSGFHVN | 1.64 1.52 0.98 | 1.38 | 4/9 (3.85) |
| 8 | EGDSLRYYYAN | GKNNRPS | SNRDSIGFQGF | 3.23 3.58 ND | 3.41 | 2/9 (5.22) |
| 9 | EGDSLRYCYAN | GFNNRPS | SSRDSSNFQVF | 2.87 4.26 ND | 3.56 | 2/9 (4.33) |
| 10 | EGDSIRYYYAN | GKNNRPS | SSKDSSGFQMF | 4.17 5.12 ND | 4.65 | 1/9 (4.54) |
| 11 | EGDSLVYYNAN | GKNNRPS | SSRDSSGKQVF | 2.02 2.06 2.00 | 2.03 | 3/9 (3.07) |
| 12 | EGDSDRYRYPN | GKNNRPS | SSRDSSGFQVF | 2.08 2.16 2.03 | 2.09 | 3/9 (4.06) |
| 13 | EGNSLRTYYAN | GKNNRMS | SSRDSSGFQVF | 2.24 1.96 1.80 | 2.00 | 2/9 (4.07) |
| 14 | EGDSLRYYYAN | GKNMRPA | SSRDYSGFQVF | 2.61 2.39 3.84 | 2.95 | 1/9 (2.99) |
| 15 | EGDALRYYYAN | GKNNRPV | SARDSSGFQVF | 1.65 1.69 1.52 | 1.62 | 4/9 (4.57) |
| 16 | EGWSLRYYYAN | GKNNRPS | SSRDSSGFNRF | ND ND ND | ND | 2/9 (2.99) |
| 17 | EGDSLRYYAAN | NKNNRPS | MSRDSSGFQVF | 1.21 1.07 0.63 | 0.97 | 7/9 (4.12) |
| 18 | EGDSLVYPYAN | GVNNRPS | SSRDSSGFQVF | 2.63 2.59 2.27 | 2.50 | 2/9 (4.00) |
| 19 | EGDSLRYYYAN | GKGSNPS | SSRDSSGFQVF | 4.58 3.14 3.71 | 3.81 | 1/9 (3.29) |
| 20 | EGDSLRYYYAN | GKNNRPS | MFRDSSGGQVF | 2.13 2.41 2.20 | 2.25 | 3/9 (3.03) |
| 21 | EGDSLRYYYAN | GKNNRFS | SQGDSSGFQVF | 3.24 3.78 2.35 | 3.13 | 3/9 (3.93) |
| 22 | NGDSHRYYYAN | GKNNRPS | LSRDSSGFQVF | 2.98 ND ND | 2.98 | 1/9 (3.95) |
| 23 | EGDSLRVYAAN | GKNNRPS | SSRDSSGFWVF | 3.51 3.40 2.68 | 3.20 | 3/9 (4.56) |
| 24 | EGDSLRYNYAN | GKNNRPD | SSRTSSGFQVF | 1.14 1.18 0.70 | 1.01 | 4/9 (3.79) |
| 25 | EGDSLRYYYAN | GKYNRPS | SDRCSSGFQVF | 5.41 3.56 ND | 4.48 | 5/9 (4.37) |
| 26 | EGDSLRTYYAK | GKNNRPS | SYRDSSGFQVF | ND ND ND | ND | 3/9 (3.49) |
| 27 | EGCSLRYYYAN | GKNNRPS | SSRDWRGFQVF | 3.16 3.13 3.71 | 3.33 | 1/9 (4.09) |
| 28 | ERDSLRYYYAN | GKNNRPA | SSRDSSGFNVF | 3.84 3.32 3.85 | 3.67 | 3/9 (4.06) |
| 29 | EGDSLRYAYAN | CKNNRPS | SSRDSSGFQVI | 3.42 4.20 ND | 3.81 | 6/9 (4.55) |
| 30 | EGDSLRYYYGN | GKNNRPS | SSRWMSGFQVF | ND ND ND | ND | 0/9 |
| 31 | EGDMLDYYYAN | GKNNRPS | SSRDSSGFQVH | 1.96 2.16 1.21 | 1.78 | 0/9 |
| 32 | EGDSLRIYYAN | GKNNRWS | SLRDSSGFQVF | 4.26 5.26 ND | 4.76 | 3/9 (4.08) |
| 33 | EGDSLRYPYAN | GKNNRPS | SSRDSLCFQVF | ND 4.81 ND | 4.81 | 3/9 (3.90) |
| 34 | EGDSIRYYYAN | GKNNRPS | SSRDSSGTQVF | 2.68 2.72 2.09 | 2.50 | 4/9 (4.40) |
| 35 | EGDSLRYYYAN | GRNNRPS | SSRDSSGWDVF | 3.26 2.49 2.83 | 2.86 | 4/9 (3.65) |
| 36 | EGDSLRYYYAN | GRNNRPS | SSKMSSGFQVF | 3.31 2.22 2.69 | 2.74 | 1/9 (3.48) |
| 37 | EGCKLRYYYAN | GKNNRWS | SSRDSSGFQVF | ND 5.07 4.22 | 4.65 | 3/9 (4.16) |
| 38 | EGDSLRYYYAN | GKNNYPS | SSRDSSKFQIF | ND ND ND | ND | 3/9 (4.00) |
| 39 | WGDSLRYYYAN | GWNNRPS | SSRDSMGFQVF | 3.71 3.08 4.22 | 3.67 | 0/9 |
| 40 | EGDPLRYYYAN | GKNNRPS | SSRDSSDFQVS | 4.27 ND ND | 4.27 | 3/9 (3.65) |
| 41 | EGDSLRYHYAN | GKNNRPS | SSWYSSGFQVF | 1.45 1.34 1.15 | 1.31 | 5/9 (3.99) |
| 42 | EGDSLRYHYAN | GKNNRPW | SSRDSSGEQVF | 1.15 1.68 0.67 | 1.17 | 1/9 (2.44) |
| 43 | EGDSLRYYYAN | GKNNNPS | SSRDSSLFQVF | ND ND ND | ND | 3/9 (4.48) |
| 44 | EGDSLRYYYLN | PKNNRPS | SSIDSSGFQVF | 3.46 ND ND | 3.46 | 3/9 (3.68) |
| 45 | PGVSLRYYYAN | GKNNWPS | SSRDSSGFQVF | 3.32 4.22 ND | 3.77 | 5/9 (4.16) |
| 46 | EGDSLRYYYAN | GKNFRPS | SSRGSSGFQVF | 2.66 3.05 2.86 | 2.86 | 5/9 (4.04) |
| 47 | EGHSLRYYYAA | GKNNRPS | SSRDSSGFQPF | 4.26 4.09 4.58 | 4.31 | 3/9 (3.52) |
| 48 | EGDSLRHYYAN | GKNNRPS | SRRDSGGFQVF | 2.89 2.92 2.58 | 2.80 | 4/9 (3.84) |
| 49 | TGDSLRYYYAN | GKNNRPS | SKRESSGFQVF | 3.15 2.88 2.72 | 2.92 | 1/9 (4.13) |
| 50 | EGDSLRYYYAN | GLSNRPC | SSRDSSGFQVF | ND ND ND | ND | 1/9 (3.40) |
| 51 | EGDSLRYYYAN | RFNNRPS | SSRVSSGFQVF | 3.69 ND ND | 3.69 | 6/9 (3.93) |

7 of these entries, quoted again:

| CDR-L1 | CDR-L2 | CDR-L3 | replicates, log10 nM | mean, log10 nM | empty controls |
|---|---|---|---|---|---|
| EGDALRYYYAN | GKNNRPV | SARDSSGFQVF | 1.65 1.69 1.52 | 1.62 | 4/9 (4.57) |
| EGDSLRYYYAN | GKNNRPS | SSRDSHGFQAI | ND ND ND | ND | 1/9 (2.69) |
| EGDSLRYAYAN | CKNNRPS | SSRDSSGFQVI | 3.42 4.20 ND | 3.81 | 6/9 (4.55) |
| EGHSLRYYYAA | GKNNRPS | SSRDSSGFQPF | 4.26 4.09 4.58 | 4.31 | 3/9 (3.52) |
| EGDSLRYYYAN | GKNMRPA | SSRDYSGFQVF | 2.61 2.39 3.84 | 2.95 | 1/9 (2.99) |
| EGDSLRYYAAN | NKNNRPS | MSRDSSGFQVF | 1.21 1.07 0.63 | 0.97 | 7/9 (4.12) |
| EGDSLRTYYAN | GKNNRPS | SSRPSSGFQVG | 2.28 2.17 2.75 | 2.40 | 5/9 (3.91) |